NALP1 inh = NALP1 inflammasome inhibitors in reconstituted yeast, colorimetric, S. cerevisiae, triplicate retest | S. cerevisiae NALP1/ASC/caspase-1 growth, X-gal OD620, 72 h | inhibition, % at 10 µM | 280,000 tested, 0.61% active | AID 2071, 2009; in the data active means inhibition mostly above about 24%, no sharp cut-off; inactive means mostly below about 32%
ALR H2O2 inh = human ALR oxidase inhibition via reduced H2O2 | 290,000 compounds, 3.8% hits | inhibition, % (no concentration beside the values) | P55789 | purified ALR, DTT oxidation, H2O2 HRP-luminol luminescence;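 active means mean and each replicate at 75% or more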;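 further: stock transfer was 7.5 nL into about 7.5 µL; 0% = neutral wells and 100% = wells with inactivated enzyme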
Yeast UUG start = yeast start codon fidelity modulation | S. cerevisiae UUG-firefly luciferase reporter, luminescence/redox ratio | activity score, % at 18.7 µM | hit rate 0.13% among 350,000 | AID 602363;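 active means replicate mean at a twofold rise or more, about +100% in these data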;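 further: firefly luciferase made from a UUG start codon reports start codon fidelity; reporter light over untreated wells divided by growth signal over untreated wells; some hits fall short of that in this replicate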
MC4R antag cAMP = MC4R antagonists of cAMP signaling, primary screen, cell-based, TR-FRET, antagonist arm of biased-ligand search. inhibition, % at 6.5 µM. AID 540295, 2011. Melanocortin receptor 4 (Homo sapiens), P32245. MC4R-expressing cells, MTII-stimulated cAMP, LANCE TR-FRET. 360,000 tested, 0.48% active;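 active means inhibition above its plate's cutoff, the mean of tested wells on that plate plus 3 SD, cut at about 29% in these data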;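 further: 0% = Melanotan II alone and 100% = Melanotan II plus saturating MCL0020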
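System – human MC4R-expressing U2OS cells · Also added – Melanotan II · Dosing – one concentration, 6.5 µM nominal · Timing – 30-min compound, 1-h challenge, 1-h detection, room temperature · Measured by – Eu-cAMP/anti-cAMP TR-FRET, emission 671 nm · Replicates – singlicate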
MC4R barr agon = MC4R agonists recruiting beta-arrestin, primary screen, cell-based, luminescence, agonist arm of biased-ligand search. U2OS MC4R beta-arrestin complementation; percent of melanotan II response, DMSO zero. activation, % at 8.9 µM. 360,000 tested, 0.98% active. AID 540308, 2011;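 active means activation above a per-plate cutoff, the mean activation of sample wells on that plate plus 3 SD, cut at about 8% in these data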
HDAC3 inhib = HDAC3 deacetylase inhibitors, primary screen, biochemical, fluorescence, cell-free homogeneous; recombinant HDAC3, fluorogenic peptide/trypsin coupled; 320,000 tested, 0.15% active; Histone deacetylase 3 (Homo sapiens), O15379; inhibition, % at 8.3 µM; in the data active means inhibition above about 26%, passing the limit was not always enough
Active calls of the source: *; / = not tested or not shown. Shown are actives, neighbours in structure and some others; about 4.2% of the full set was active somewhere.

Protein sequences, listed by entry. Tags and fused reporters are not part of them.
Melanocortin receptor 4 (Homo sapiens), P32245, UniProt P32245, whole entry, looked up: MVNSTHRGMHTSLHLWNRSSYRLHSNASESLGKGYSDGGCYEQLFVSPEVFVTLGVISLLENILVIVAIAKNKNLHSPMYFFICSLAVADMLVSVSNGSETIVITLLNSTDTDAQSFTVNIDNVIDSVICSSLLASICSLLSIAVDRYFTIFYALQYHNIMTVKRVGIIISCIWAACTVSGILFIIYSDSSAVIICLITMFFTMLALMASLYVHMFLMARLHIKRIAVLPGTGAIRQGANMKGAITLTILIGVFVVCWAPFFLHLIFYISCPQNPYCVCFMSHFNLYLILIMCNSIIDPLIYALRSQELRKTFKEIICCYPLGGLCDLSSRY

NALP1 inh | ALR H2O2 inh | Yeast UUG start | MC4R antag cAMP | MC4R barr agon | HDAC3 inhib | structure
/ | / | -7.0 | / | / | / | COCC(=O)N(C)C[C@H]1Oc2cc(-c3ccc(C#N)cc3)ccc2S(=O)(=O)N([C@@H](C)CO)C[C@H]1C
3.1 | 90.4* | -10.0 | 9.7 | 3.8 | 7.7 | Cc1ccc(-c2cc(-c3ccccc3[N+](=O)[O-])[nH]n2)c(O)c1
14.6 | 9.0 | -11.7 | -1.0 | 1.1 | 17.9 | Cc1ccc(-c2cc(-c3ccccc3Cl)[nH]n2)c(O)c1
32.6 | 94.0* | -11.8 | 4.0 | -0.1 | -1.9 | c1ccc(CNc2ccc3c(c2)ncn3C2CCCCC2)nc1
92.2* | 98.4* | / | -35.6 | -3.4 | 14.6 | CC[n+]1c(/C=C/c2ccc(N(C)C)cc2)ccc2ccccc21
11.2 | 99.1* | 36.9 | -6.0 | -1.3 | 9.6 | CCN(CC)c1ccc(/C=C/c2ccc3ccc(OC)cc3[n+]2CC)cc1
4.7 | 98.9* | 42.8 | -45.9 | -2.3 | 6.1 | C[n+]1c(/C=C/c2ccc(O)cc2)ccc2ccccc21
44.6* | / | / | -26.3 | -7.8 | / | CC[n+]1ccc(/C=C/c2ccc(N(C)C)cc2)c2ccccc21
/ | / | 9.5 | / | / | / | O=C(c1ccncc1)N1C[C@@H]2[C@H](c3ccccc31)[C@@H](CO)N2C(=O)Nc1ccc(F)cc1
7.6 | 5.3 | -10.3 | 8.2 | 1.4 | 0.2 | Cc1cc(C)c(-n2[nH]nnc2=S)c(C)c1
2.4 | 82.2* | / | 10.0 | -1.4 | -2.4 | Fc1ccc(-n2[nH]nnc2=S)cc1N1CCCC1
/ | / | -6.3 | / | / | / | O=C(C[C@H]1C[C@H]2c3cc(NC(=O)NC4CCCC4)ccc3O[C@H]2[C@@H](CO)O1)NC1CCCCC1
6.5 | -14.1 | -9.6 | 11.1 | -1.1 | -5.1 | CC(=O)Nc1ccccc1-c1ccc(C)o1
11.7 | 99.1* | -24.9 | 2.1 | -2.7 | -3.1 | Cc1ccc(NC(=O)CS(=O)CC(=O)Nc2ccccc2-c2ccc(C)o2)cc1 (stereo not given)
5.4 | 91.1* | -1.2 | 1.5 | -1.3 | 4.1 | COc1ccc(/C=C2\Oc3cc(OCC(=O)N4CCC(C(=O)O)CC4)ccc3C2=O)c(OC)c1OC
/ | 1.3 | -4.7 | 3.7 | -1.1 | -3.3 | CC(OC(=O)/C=C/c1ccc2ccccc2n1)C(=O)N(C)c1ccccc1 (stereo not given)
8.1 | 97.6* | / | 3.9 | 0.4 | 4.4 | CC(=O)/C=C/c1ccc2ccccc2n1
/ | 94.3* | / | 8.6 | 2.6 | -1.7 | COc1ccccc1NC(=O)C(C)OC(=O)/C=C/c1ccc2ccccc2n1 (stereo not given)
/ | / | -11.4 | / | / | / | Cc1ccc(S(=O)(=O)Nc2ccc3c(c2)C(=O)N([C@H](C)CO)C[C@H](C)[C@@H](CN(C)S(=O)(=O)c2ccc(C)cc2)OCCCC[C@H](C)O3)cc1
25.9 | 98.4* | / | 16.2 | 0.2 | 4.6 | CC(C)C(NC(=O)CSCc1ccc([N+](=O)[O-])cc1)C(C)C
41.2* | / | / | 2.5 | -3.2 | 0.0 | COc1ccccc1NC(=O)CSCc1ccc([N+](=O)[O-])cc1
27.1 | 98.9* | -25.1 | -7.1 | -1.3 | -2.5 | COc1ccc([N+](=O)[O-])cc1NC(=O)CSc1ccc2ccccc2c1
23.3 | / | -7.5 | 7.2 | -2.0 | 1.9 | COc1ccc([N+](=O)[O-])cc1NC(=O)CSc1nc(C)cc(C)n1
25.2 | 96.3* | / | 4.5 | 0.6 | -2.6 | Cc1ccc(SCC(=O)Nc2ccc(F)cc2[N+](=O)[O-])cc1C
33.6 | -2.6 | / | -1.2 | -2.0 | 5.6 | COc1ccc([N+](=O)[O-])cc1NC(=O)CSCc1cc(C)cc(C)c1
/ | / | 5.6 | / | / | / | CCC(=O)Nc1ccc2c(c1)OC[C@H](C)N(C(=O)CC1CC1)C[C@H](C)[C@@H](OC)CN(C)C2=O
-12.6 | 47.7 | -23.4 | 0.5 | -1.8 | -8.4 | COc1ccc(NC(=S)N2CCN(c3ccccc3)CC2)c(OC)c1
4.7 | 94.0* | -25.2 | 9.4 | 1.9 | 4.9 | COc1ccccc1NC(=O)CSCC(N)=O
3.5 | -5.2 | -2.6 | -4.0 | 0.5 | -3.2 | COc1ccccc1NC(=O)CC(=O)Nc1ccccc1OC

Complete entries, looked up by structure. Order of screens: NALP1 inh, ALR H2O2 inh, Yeast UUG start, MC4R antag cAMP, MC4R barr agon, HDAC3 inhib
`Cc1ccc(NC(=O)CS(=O)CC(=O)Nc2ccccc2-c2ccc(C)o2)cc1` (stereo not given) as listed: 11.7, 99.1*, -24.9, 2.1, -2.7, -3.1
`CCN(CC)c1ccc(/C=C/c2ccc3ccc(OC)cc3[n+]2CC)cc1` as listed: 11.2, 99.1*, 36.9, -6.0, -1.3, 9.6
`O=C(C[C@H]1C[C@H]2c3cc(NC(=O)NC4CCCC4)ccc3O[C@H]2[C@@H](CO)O1)NC1CCCCC1` as listed: /, /, -6.3, /, /, /
`COc1ccc(/C=C2\Oc3cc(OCC(=O)N4CCC(C(=O)O)CC4)ccc3C2=O)c(OC)c1OC` as listed: 5.4, 91.1*, -1.2, 1.5, -1.3, 4.1
